The source of these data is KR20220001106A.

Sequences of proteins named here, by UniProt entry; tags and fusion partners are left off. A line that says so, or that is headed by a name, gives the form on record, which may keep a tag or linker.
UniProt P15692, other isoform, or with tags, fused parts or gaps limits assumed: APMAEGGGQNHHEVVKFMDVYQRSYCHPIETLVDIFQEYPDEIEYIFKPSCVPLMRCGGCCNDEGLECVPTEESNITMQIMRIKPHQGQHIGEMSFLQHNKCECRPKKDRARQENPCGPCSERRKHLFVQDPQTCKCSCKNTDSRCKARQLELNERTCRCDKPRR

As a reminder, the Kd is the free concentration of one partner at which half of the binding sites on the other are occupied at equilibrium, for simple one-to-one binding. By koff is commonly meant a measure of how fast the partners let go of each other. Usually kon stands for a measure of how fast the partners come together.

The target of test [1] is recombinant human VEGF165 (Sino biological) (human) (UniProt P15692). Nature of the test: Octet red96E BLI, VEGF165 amine-coupled on AR2G sensor, antibody as analyte, 30 C. On the technique in general: BLI is a label-free optical method that tracks binding on a fibre tip over time.
Test [2] has the same target. Nature of the test: cell-based or functional assay.

With Lucentis-Ig (antibody), in test [1], the dissociation constant (Kd) is 0.0148 nM, the koff came to 5.92e-06 s⁻¹ and the kon came out at 400000 M⁻¹ s⁻¹.

On to 베바시주맙(아바스틴) (antibody), for which the IC50, inhibition of VEGF-induced calcium increase in HUVEC cells in test [2] worked out at 1.2 nM.
